Assay results taken from ChEMBL document CHEMBL5647680 (Cancer Res, 2006).

Protein sequences, listed by entry. Tags and fused reporters are not part of them.
UniProt P35918, whole entry: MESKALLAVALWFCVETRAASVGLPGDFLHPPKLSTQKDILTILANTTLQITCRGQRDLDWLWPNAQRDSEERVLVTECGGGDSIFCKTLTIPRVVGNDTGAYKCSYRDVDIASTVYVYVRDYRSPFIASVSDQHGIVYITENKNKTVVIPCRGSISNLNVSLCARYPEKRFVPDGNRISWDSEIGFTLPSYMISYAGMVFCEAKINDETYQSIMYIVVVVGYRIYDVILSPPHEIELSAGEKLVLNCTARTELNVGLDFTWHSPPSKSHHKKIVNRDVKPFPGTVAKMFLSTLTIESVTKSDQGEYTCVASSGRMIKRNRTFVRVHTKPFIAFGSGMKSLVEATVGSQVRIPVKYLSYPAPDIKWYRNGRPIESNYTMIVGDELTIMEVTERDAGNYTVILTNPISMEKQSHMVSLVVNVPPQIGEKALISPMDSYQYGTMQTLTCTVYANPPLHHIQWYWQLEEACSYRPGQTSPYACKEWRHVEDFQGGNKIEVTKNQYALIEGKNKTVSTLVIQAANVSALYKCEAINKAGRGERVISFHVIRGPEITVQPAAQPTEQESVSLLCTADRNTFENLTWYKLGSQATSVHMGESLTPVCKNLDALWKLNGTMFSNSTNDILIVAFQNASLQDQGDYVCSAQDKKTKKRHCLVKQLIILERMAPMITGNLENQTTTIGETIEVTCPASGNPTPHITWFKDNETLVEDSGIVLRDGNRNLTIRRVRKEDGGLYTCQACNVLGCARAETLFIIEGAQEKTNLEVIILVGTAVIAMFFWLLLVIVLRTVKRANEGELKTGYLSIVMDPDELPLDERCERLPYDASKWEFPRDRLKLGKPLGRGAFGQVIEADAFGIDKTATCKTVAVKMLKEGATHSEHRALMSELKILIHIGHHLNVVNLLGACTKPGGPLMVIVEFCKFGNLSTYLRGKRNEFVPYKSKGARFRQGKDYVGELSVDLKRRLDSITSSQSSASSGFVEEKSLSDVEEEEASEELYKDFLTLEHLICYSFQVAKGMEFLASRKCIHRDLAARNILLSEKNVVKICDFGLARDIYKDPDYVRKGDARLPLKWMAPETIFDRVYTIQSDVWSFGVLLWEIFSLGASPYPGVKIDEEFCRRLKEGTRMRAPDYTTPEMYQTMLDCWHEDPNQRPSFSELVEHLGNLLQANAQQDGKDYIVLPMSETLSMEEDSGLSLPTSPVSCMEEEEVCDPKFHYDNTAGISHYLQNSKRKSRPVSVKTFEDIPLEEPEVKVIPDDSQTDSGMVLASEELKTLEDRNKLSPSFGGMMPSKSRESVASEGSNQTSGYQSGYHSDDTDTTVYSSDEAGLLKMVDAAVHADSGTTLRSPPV

Target: Vascular endothelial growth factor receptor 2 (Mus musculus, UniProt P35918)
Experiment: Inhibition of mouse VEGFR2 using gastrin peptide as substrate and ATP concentration two-thirds of Km by HTRF assay

## CC1(C)CNc2cc(NC(=O)c3cccnc3NCc3ccncc3)ccc21 [MOTESANIB]
  IC50: 6 nM
